From US10071984B2, “Histone demethylase inhibitors” (Celgene Quanticel Research, Inc., priority 2014, dated 2018) come the findings set out here.

Sequences of proteins named here, by UniProt entry; tags and fusion partners are left off. Residues count along the entry.
UniProt Q9UPP1, 37-1060: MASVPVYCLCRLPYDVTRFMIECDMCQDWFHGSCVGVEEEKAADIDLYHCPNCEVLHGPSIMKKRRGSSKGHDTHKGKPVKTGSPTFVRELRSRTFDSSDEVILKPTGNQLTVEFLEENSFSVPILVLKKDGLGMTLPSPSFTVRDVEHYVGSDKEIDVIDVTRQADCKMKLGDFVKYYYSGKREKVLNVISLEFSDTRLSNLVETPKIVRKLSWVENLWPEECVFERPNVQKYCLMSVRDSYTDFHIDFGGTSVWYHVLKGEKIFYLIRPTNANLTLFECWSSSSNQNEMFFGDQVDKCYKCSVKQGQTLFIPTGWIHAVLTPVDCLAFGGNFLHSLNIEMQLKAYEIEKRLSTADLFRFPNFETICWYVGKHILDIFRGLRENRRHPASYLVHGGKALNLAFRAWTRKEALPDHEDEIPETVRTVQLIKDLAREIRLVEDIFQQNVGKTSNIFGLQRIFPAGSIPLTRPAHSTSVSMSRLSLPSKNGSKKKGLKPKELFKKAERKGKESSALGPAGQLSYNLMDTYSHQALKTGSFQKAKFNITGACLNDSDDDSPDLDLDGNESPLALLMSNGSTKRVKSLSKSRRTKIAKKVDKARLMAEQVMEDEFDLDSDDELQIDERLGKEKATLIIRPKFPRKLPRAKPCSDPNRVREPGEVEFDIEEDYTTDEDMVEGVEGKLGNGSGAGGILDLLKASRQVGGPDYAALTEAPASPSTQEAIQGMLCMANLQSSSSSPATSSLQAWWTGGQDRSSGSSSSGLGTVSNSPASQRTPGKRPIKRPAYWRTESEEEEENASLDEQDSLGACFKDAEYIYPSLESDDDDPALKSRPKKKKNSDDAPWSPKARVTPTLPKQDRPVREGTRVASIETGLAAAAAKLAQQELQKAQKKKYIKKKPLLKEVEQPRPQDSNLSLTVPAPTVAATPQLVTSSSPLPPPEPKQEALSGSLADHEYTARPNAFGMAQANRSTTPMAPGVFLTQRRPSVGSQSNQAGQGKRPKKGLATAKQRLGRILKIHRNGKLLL

This test addresses PHF8 (Homo sapiens (Human), UniProt Q9UPP1). In words: PHF8 in vitro enzyme inhibition assay (TR-FRET). It counts as biochemical. Particulars: 3 nM PHF8, H3K9me1-biotin peptide. The text has this:
This assay determines the ability of a test compound to inhibit FBXL11, FBXL10, and PHF8 demethylase activity. Baculovirus expressed FBXL11 (GenBank Accession #NM_012308, AA1-1162) was purchased from BPS Bioscience (Cat#50102). Baculovirus expressed FBXL10 (GenBank Accession #NM_032590, AA 1-650) was purchased from BPS Bioscience (Cat #50120). Baculovirus expressed PHF8 (GenBank Accession NP_055922.1) was purchased from Active Motif (Cat#31435).
The ability of test compounds to inhibit the activity of PHF8 was determined in 384-well plate format under the following reaction conditions: 3 nM PHF8, 200 nM H3K9me1-biotin labeled peptide (Anaspec cat #64358), 0.5 μM alpha-ketoglutaric acid in assay buffer of 50 mM HEPES, pH7.3, 0.005% Brij35, 0.5 mM TCEP, 0.2 mg/ml BSA, 50 μM sodium L-ascorbate, and 5 μM ammonium iron(II) sulfate. Reaction product was determined quantitatively by TR-FRET after the addition of detection reagent Phycolink Streptavidin-allophycocyanin (Prozyme) and Europium-anti-unmodified-histone H3 lysine 9/lysine27 (H3K9/K27) antibody (PerkinElmer) in the presence of 5 mM EDTA in LANCE detection buffer (PerkinElmer) at a final concentration of 25 nM and 0.5 nM, respectively. […]
The ability of the compounds disclosed herein to inhibit demethylase activity was quantified and the respective IC50 value was determined. […]
(In general: TR-FRET usually uses a lanthanide donor and a delayed reading to cut background.)

What is called IC50 is the concentration that inhibits the measured activity by half. A lower IC50 goes with greater potency. `Cn1cnc(-c2cc(-c3c[nH]nn3)ccn2)c1` [Example 1, 2-(1-methylimidazol-4-yl)-4-(1H-triazol-4-yl)pyridine]: the half-inhibitory concentration (IC50) was in the range of 100 to 1000 nM.
